Reference: patent US11191910B2, “Medical unit dose container” (dated 2021)
Marks after values point to notes of the source that are not given here.

Legend:
[1] = Nasal cavity deposition of dry powder 2-PAM with coomassie blue in rats (POD device); details: rat
[2] = Tissue distribution (plasma and brain) of 2-PAM in rats after POD or intravenous administration; details: rat

In the case of 2-pyridine aldoxime methyl chloride, the “Dye localization in the nasal cavity after POD administration” value ([1]; dry powder 2-PAM 2.5 mg with 0.1% coomassie blue, <5 minutes after dosing) is reported as “deposited primarily within this olfactory region”, the “Drug found in the trachea or esophagus after POD administration” value ([1]; dry powder 2-PAM with coomassie blue) is reported as “none” and the “Brain concentrations, powder POD compared to aqueous 2-PAM POD” value ([2]; 5 and 15 minutes after administration) is reported as “significantly higher”. The Brain concentration after POD compared to IV administration ([2]; 5 minutes after administration) was 3.5 ×, the Brain-to-plasma ratio ([2]; IV 2-PAM, 2.5 mg, 5 min) was 8.7 and the Brain-to-plasma ratio ([2]; IV 2-PAM, 2.5 mg, 15 min) was 13.1. The Brain-to-plasma ratio ([2]; IV 2-PAM, 2.5 mg, 30 min) was 16.8, the Brain-to-plasma ratio ([2]; IV 2-PAM, 2.5 mg, 60 min) was 11.7 and the Brain-to-plasma ratio ([2]; IV 2-PAM, 2.5 mg, 120 min) was 6.7. For the same substance, the “Brain 2-PAM concentration” value ([2]; IV, 2.5 mg, 5 min) was 11.9 ng/g tissue, the “Plasma 2-PAM concentration” value ([2]; IV, 2.5 mg, 5 min) was 1.42* ng/g tissue and the “Brain 2-PAM concentration” value ([2]; IV, 2.5 mg, 15 min) was 9.0 ng/g tissue. The “Plasma 2-PAM concentration” value ([2]; IV, 2.5 mg, 15 min) was 0.73* ng/g tissue, the “Direct transport percentage (% DTP) to the brain” value ([2]; aqueous 2-PAM via POD vs IV) was 80.9% and the Brain-to-plasma ratio ([2]; aqueous 2-PAM via POD, 2.5 mg, 5 min) was 133. The Brain-to-plasma ratio ([2]; aqueous 2-PAM via POD, 2.5 mg, 15 min) was 58.5, the Brain-to-plasma ratio ([2]; aqueous 2-PAM via POD, 2.5 mg, 30 min) was 41.1 and the Brain-to-plasma ratio ([2]; aqueous 2-PAM via POD, 2.5 mg, 60 min) was 61.4. The Brain-to-plasma ratio ([2]; aqueous 2-PAM via POD, 2.5 mg, 120 min) was 127, the “Brain 2-PAM concentration” value ([2]; aqueous POD, 2.5 mg, 5 min) was 41.6 ng/g tissue and the “Plasma 2-PAM concentration” value ([2]; aqueous POD, 2.5 mg, 5 min) was 0.44 ng/g tissue. For the same substance, the “Plasma 2-PAM concentration” value ([2]; aqueous POD, 2.5 mg, 15 min) was 0.33 ng/g tissue, the “Total brain concentration AUC after POD compared to IV” value ([2]; aqueous formulation, 2.5 mg) was “significantly greater” and the “Total plasma AUC after POD compared to IV administration” value ([2]; aqueous formulation, 2.5 mg) was “significantly lower”. The “Brain 2-PAM concentration” value ([2]; powder POD, 5 min) was 106.19* ng/g tissue, the “Plasma 2-PAM concentration” value ([2]; powder POD, 5 min) was 0.46 ng/g tissue and the “Brain 2-PAM concentration” value ([2]; powder POD, 15 min) was 293.32 ng/g tissue. For the same substance, the “Plasma 2-PAM concentration” value ([2]; powder POD, 15 min) was 0.38 ng/g tissue.
